Results reported in patent US20220137028A1, “In Vitro Assays as Indicator of Local Tolerance” (Lonza Ltd, priority 2019, published 2022).

Tested on: human heparinized whole blood (erythrocytes)
Test: In vitro hemolysis test with co-solvents (study procedure, Drabkin's solution, absorbance 540 nm)
Conditions: co-solvent diluted with NaCl 0.9%; intersection of fitted sigmoidal curve with 5% hemolysis line; 10 min at 37° C.

| Substance | max. well tolerated co-solvent concent [%] |
| --- | --- |
| Polyethylene glycol 300 [PEG 300] | 62 |
| Polyethylene glycol 400 [PEG 400] | 42 |
